The chains behind the UniProt entries cited, without tags or fusion partners. Residues count along the entry.
UniProt P27958, 1027-1657: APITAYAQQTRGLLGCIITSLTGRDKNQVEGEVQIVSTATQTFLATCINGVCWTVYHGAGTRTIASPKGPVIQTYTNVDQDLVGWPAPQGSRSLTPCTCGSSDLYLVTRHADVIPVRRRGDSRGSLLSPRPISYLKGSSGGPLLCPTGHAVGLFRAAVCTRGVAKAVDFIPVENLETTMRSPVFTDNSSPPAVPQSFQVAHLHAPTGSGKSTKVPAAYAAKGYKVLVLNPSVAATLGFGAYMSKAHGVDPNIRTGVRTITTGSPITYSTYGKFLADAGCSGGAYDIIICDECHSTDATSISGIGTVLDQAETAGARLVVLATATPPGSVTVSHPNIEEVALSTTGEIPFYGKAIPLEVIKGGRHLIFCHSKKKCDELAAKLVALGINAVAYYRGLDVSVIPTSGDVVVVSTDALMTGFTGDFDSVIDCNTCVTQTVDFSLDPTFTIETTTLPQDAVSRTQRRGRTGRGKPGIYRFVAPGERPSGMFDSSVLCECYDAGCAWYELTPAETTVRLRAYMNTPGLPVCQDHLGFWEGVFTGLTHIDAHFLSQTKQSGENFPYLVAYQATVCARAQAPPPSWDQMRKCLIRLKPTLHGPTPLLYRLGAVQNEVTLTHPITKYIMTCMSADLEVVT
UniProt P27958, 1658-1711: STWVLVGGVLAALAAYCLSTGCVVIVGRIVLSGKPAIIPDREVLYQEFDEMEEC

In patent publication US7759499B2, “Compounds as inhibitors of hepatitis C virus NS3 serine protease” (Schering Corporation, priority 2004, dated 2010):

target: Recombinant heterodimeric HCV NS3/NS4A protease (strain 1a) (Hepatitis C virus genotype 1a, UniProt P27958); assay: Spectrophotometric assay for HCV protease inhibitory activity; type: biochemical; conditions: Table 2, range

Row | Structure (SMILES) | Ki [nM]
1 | C=CCNC(=O)C(=O)C(CCC)NC(=O)[C@@H]1[C@@H]2[C@H](CN1C(=O)[C@@H](NC(=O)N[C@H](CN(C)S(=O)(=O)C(F)(F)F)C(C)(C)C)C(C)(C)C)C2(C)C (some centres unmarked) [Compound 11091] | ≤ 75
2 | C=CCNC(=O)C(=O)C(CC1CC1)NC(=O)[C@@H]1[C@@H]2[C@H](CN1C(=O)[C@@H](NC(=O)N[C@H](CN(C)S(=O)(=O)C(F)(F)F)C(C)(C)C)C(C)(C)C)C2(C)C (some centres unmarked) [Compound 11092] | ≤ 75
3 | CCCC(NC(=O)[C@@H]1[C@@H]2[C@H](CN1C(=O)[C@@H](NC(=O)N[C@H](CN(C)S(=O)(=O)c1cccs1)[C@@H](C)CC)C(C)(C)C)C2(C)C)C(=O)C(=O)NCC(F)(F)F (some centres unmarked) [Compound 11093] | > 250
4 | CC[C@H](C)[C@@H](CN(C)S(=O)(=O)c1cccs1)NC(=O)N[C@H](C(=O)N1C[C@H]2[C@@H]([C@H]1C(=O)NC(CC1CC1)C(=O)C(N)=O)C2(C)C)C(C)(C)C (some centres unmarked) [Compound 11094] | ≤ 75
5 | CC[C@H](C)[C@@H](CN(C)S(=O)(=O)c1cccs1)NC(=O)N[C@H](C(=O)N1C[C@H]2[C@@H]([C@H]1C(=O)NC(CC1CC1)C(=O)C(=O)NC)C2(C)C)C(C)(C)C (some centres unmarked) [Compound 11095] | 75 to 250
6 | C=CCNC(=O)C(=O)C(CCCC)NC(=O)[C@@H]1[C@@H]2[C@H](CN1C(=O)[C@@H](NC(=O)N[C@H](CN(C)S(=O)(=O)C1CC1)CC(C)(C)C)C(C)(C)C)C2(C)C (some centres unmarked) [Compound 11096] | 75 to 250
7 | C#CCCC(NC(=O)[C@@H]1[C@@H]2[C@H](CN1C(=O)[C@@H](NC(=O)NC1(CN(C)S(=O)(=O)Cc3ccccc3)CCCCC1)C(C)(C)C)C2(C)C)C(=O)C(=O)NCC=C (some centres unmarked) [Compound 11097] | ≤ 75
8 | C=CCNC(=O)C(=O)C(CCC)NC(=O)[C@@H]1[C@@H]2[C@H](CN1C(=O)[C@@H](NC(=O)N[C@H](CN(C)S(=O)(=O)C1CC1)CC(C)(C)C)C(C)(C)C)C2(C)C (some centres unmarked) [Compound 11098] | 75 to 250
9 | C=CCNC(=O)C(=O)C(CCC)NC(=O)[C@@H]1[C@@H]2[C@H](CN1C(=O)[C@@H](NC(=O)N[C@H](CN(C)S(=O)(=O)c1cccs1)CC(C)(C)C)C(C)(C)C)C2(C)C (some centres unmarked) [Compound 11099] | 75 to 250
10 | CC[C@H](C)[C@@H](CN(C)S(C)(=O)=O)NC(=O)N[C@H](C(=O)N1C[C@H]2[C@@H]([C@H]1C(=O)NC(CC1CCC1)C(=O)C(N)=O)C2(C)C)C(C)(C)C (some centres unmarked) [Compound 11100] | ≤ 75
11 | C=CCNC(=O)C(=O)C(CCCC)NC(=O)[C@@H]1[C@@H]2[C@H](CN1C(=O)[C@@H](NC(=O)N[C@H](CN(C(C)C)S(=O)(=O)c1cccs1)C(C)(C)C)C(C)(C)C)C2(C)C (some centres unmarked) [Compound 11101] | ≤ 75
12 | C=CCNC(=O)C(=O)C(CCC)NC(=O)[C@@H]1[C@@H]2[C@H](CN1C(=O)[C@@H](NC(=O)N[C@H](CN(C)S(C)(=O)=O)[C@@H](C)CC)C(C)(C)C)C2(C)C (some centres unmarked) [Compound 11102] | ≤ 75
13 | C=CCNC(=O)C(=O)C(CCCC)NC(=O)[C@@H]1[C@@H]2[C@H](CN1C(=O)[C@@H](NC(=O)N[C@H](CN(C)S(=O)(=O)C(C)C)C(C)(C)C)C(C)(C)C)C2(C)C (some centres unmarked) [Compound 11103] | ≤ 75
14 | C=CCNC(=O)C(=O)C(CCCC)NC(=O)[C@@H]1[C@@H]2[C@H](CN1C(=O)[C@@H](NC(=O)N[C@H](CN(C)S(=O)(=O)CC)C(C)(C)C)C(C)(C)C)C2(C)C (some centres unmarked) [Compound 11104] | ≤ 75
15 | CCCCC(NC(=O)[C@@H]1[C@@H]2[C@H](CN1C(=O)[C@@H](NC(=O)N[C@H](CN(C)S(=O)(=O)c1cccs1)C(C)(C)C)C(C)(C)C)C2(C)C)C(=O)C(=O)NCC (some centres unmarked) [Compound 11105] | ≤ 75
16 | CCCC(NC(=O)[C@@H]1[C@@H]2[C@H](CN1C(=O)[C@@H](NC(=O)N[C@H](CN(C)S(=O)(=O)c1cccs1)C(C)(C)C)C(C)(C)C)C2(C)C)C(=O)C(=O)NCC (some centres unmarked) [Compound 11106] | ≤ 75
17 | C=CCNC(=O)C(=O)C(CC1CC1)NC(=O)[C@@H]1[C@@H]2[C@H](CN1C(=O)[C@@H](NC(=O)N[C@H](CN(C)S(=O)(=O)C1CC1)CC(C)(C)C)C(C)(C)C)C2(C)C (some centres unmarked) [Compound 11107] | 75 to 250
18 | C=CCNC(=O)C(=O)C(CC1CC1)NC(=O)[C@@H]1[C@@H]2[C@H](CN1C(=O)[C@@H](NC(=O)N[C@H](CN(C)S(=O)(=O)c1cccs1)CC(C)(C)C)C(C)(C)C)C2(C)C (some centres unmarked) [Compound 11108] | ≤ 75
19 | C=CCNC(=O)C(=O)C(CCC)NC(=O)[C@@H]1[C@@H]2[C@H](CN1C(=O)[C@@H](NC(=O)N[C@H](CN(C)S(=O)(=O)C(C)C)C(C)(C)C)C(C)(C)C)C2(C)C (some centres unmarked) [Compound 11109] | ≤ 75
20 | C=CCNC(=O)C(=O)C(CCC)NC(=O)[C@@H]1[C@@H]2[C@H](CN1C(=O)[C@@H](NC(=O)N[C@H](CN(C)S(=O)(=O)CC)C(C)(C)C)C(C)(C)C)C2(C)C (some centres unmarked) [Compound 11110] | ≤ 75
21 | C=CCNC(=O)C(=O)C(CC1CC1)NC(=O)[C@@H]1[C@@H]2[C@H](CN1C(=O)[C@@H](NC(=O)N[C@H](CN(C)S(=O)(=O)C(C)C)C(C)(C)C)C(C)(C)C)C2(C)C (some centres unmarked) [Compound 11111] | ≤ 75
22 | C=CCNC(=O)C(=O)C(CCC(F)(F)F)NC(=O)[C@@H]1[C@@H]2[C@H](CN1C(=O)[C@@H](NC(=O)N[C@H](CN(C)S(C)(=O)=O)[C@@H](C)CC)C(C)(C)C)C2(C)C (some centres unmarked) [Compound 11112] | ≤ 75

Row | Structure (SMILES) | Ki [nM]
23 | CCCC(NC(=O)[C@@H]1[C@@H]2[C@H](CN1C(=O)[C@@H](NC(=O)N[C@H](CN(C)S(=O)(=O)c1cccs1)[C@@H](C)CC)C(C)(C)C)C2(C)C)C(=O)C(=O)NCCC(F)(F)F (some centres unmarked) [Compound 11113] | 75 to 250
24 | C=CCNC(=O)C(=O)C(CC1CC1)NC(=O)[C@@H]1[C@@H]2[C@H](CN1C(=O)[C@@H](NC(=O)N[C@H](CN(C)S(=O)(=O)CC)C(C)(C)C)C(C)(C)C)C2(C)C (some centres unmarked) [Compound 11114] | ≤ 75
25 | C=CCNC(=O)C(=O)C(CCC)NC(=O)[C@@H]1[C@@H]2[C@H](CN1C(=O)[C@@H](NC(=O)N[C@H](CN(C)S(=O)(=O)c1sc(C)nc1C)C(C)(C)C)C(C)(C)C)C2(C)C (some centres unmarked) [Compound 11115] | ≤ 75
26 | C=CCNC(=O)C(=O)C(CC1CC1)NC(=O)[C@@H]1[C@@H]2[C@H](CN1C(=O)[C@@H](NC(=O)N[C@H](CN(C)S(=O)(=O)c1sc(C)nc1C)C(C)(C)C)C(C)(C)C)C2(C)C (some centres unmarked) [Compound 11116] | ≤ 75
27 | CN(C[C@@H](NC(=O)N[C@H](C(=O)N1C[C@H]2[C@@H]([C@H]1C(=O)NC(CC1CC1)C(=O)C(N)=O)C2(C)C)C(C)(C)C)C(C)(C)C)S(C)(=O)=O (some centres unmarked) [Compound 11117] | ≤ 75
28 | CC(C)[C@@H](CN(C)S(=O)(=O)c1ccccc1)NC(=O)N[C@H](C(=O)N1C[C@H]2[C@@H]([C@H]1C(=O)NC(CC1CC1)C(=O)C(N)=O)C2(C)C)C(C)(C)C (some centres unmarked) [Compound 11118] | ≤ 75
29 | Cc1nc(C)c(S(=O)(=O)N(C)C[C@@H](NC(=O)N[C@H](C(=O)N2C[C@H]3[C@@H]([C@H]2C(=O)NC(CC2CCC2)C(=O)C(N)=O)C3(C)C)C(C)(C)C)C(C)(C)C)s1 (some centres unmarked) [Compound 11119] | ≤ 75
30 | CCS(=O)(=O)N(C)C[C@@H](NC(=O)N[C@H](C(=O)N1C[C@H]2[C@@H]([C@H]1C(=O)NC(CC1CCC1)C(=O)C(N)=O)C2(C)C)C(C)(C)C)C(C)(C)C (some centres unmarked) [Compound 11120] | ≤ 75
31 | CC(C)S(=O)(=O)N(C)C[C@@H](NC(=O)N[C@H](C(=O)N1C[C@H]2[C@@H]([C@H]1C(=O)NC(CC1CCC1)C(=O)C(N)=O)C2(C)C)C(C)(C)C)C(C)(C)C (some centres unmarked) [Compound 11121] | ≤ 75
32 | C=CCNC(=O)C(=O)C(CCCC)NC(=O)[C@@H]1[C@@H]2[C@H](CN1C(=O)[C@@H](NC(=O)N[C@H](CN(C)S(=O)(=O)c1sc(C)nc1C)C(C)(C)C)C(C)(C)C)C2(C)C (some centres unmarked) [Compound 11122] | ≤ 75
33 | C=CCNC(=O)C(=O)C(CC1CC1)NC(=O)[C@@H]1[C@@H]2[C@H](CN1C(=O)[C@@H](NC(=O)N[C@H](CN(C)S(=O)(=O)c1cccs1)C(C)(C)C)C1CCCCC1)C2(C)C (some centres unmarked) [Compound 11123] | ≤ 75
34 | CC[C@H](C)[C@@H](CN(C)S(C)(=O)=O)NC(=O)N[C@H](C(=O)N1C[C@H]2[C@@H]([C@H]1C(=O)NC(CC1CC1)C(=O)C(=O)NC)C2(C)C)C(C)(C)C (some centres unmarked) [Compound 11124] | ≤ 75
35 | CCCC(NC(=O)[C@@H]1[C@@H]2[C@H](CN1C(=O)[C@@H](NC(=O)N[C@H](CN(C)S(C)(=O)=O)[C@@H](C)CC)C(C)(C)C)C2(C)C)C(=O)C(=O)NCCC(F)(F)F (some centres unmarked) [Compound 11125] | ≤ 75
36 | CN(C[C@@H](NC(=O)N[C@H](C(=O)N1C[C@H]2[C@@H]([C@H]1C(=O)NC(CC1CCC1)C(=O)C(N)=O)C2(C)C)C1CCCCC1)C(C)(C)C)S(=O)(=O)c1cccs1 (some centres unmarked) [Compound 11126] | ≤ 75
37 | C#CCCC(NC(=O)[C@@H]1[C@@H]2[C@H](CN1C(=O)[C@@H](NC(=O)N[C@H](CN(C)S(=O)(=O)c1cccs1)C(C)(C)C)C(C)(C)C)C2(C)C)C(=O)C(=O)NCC=C (some centres unmarked) [Compound 11127] | ≤ 75
38 | C#CCCC(NC(=O)[C@@H]1[C@@H]2[C@H](CN1C(=O)[C@@H](NC(=O)N[C@H](CN(C)S(C)(=O)=O)C(C)(C)C)C(C)(C)C)C2(C)C)C(=O)C(=O)NCC=C (some centres unmarked) [Compound 11128] | ≤ 75
39 | CN(C[C@H](CC(C)(C)C)NC(=O)N[C@H](C(=O)N1C[C@H]2[C@@H]([C@H]1C(=O)NC(CC1CC1)C(=O)C(N)=O)C2(C)C)C(C)(C)C)S(=O)(=O)c1ccccc1 (some centres unmarked) [Compound 11129] | ≤ 75
40 | CN(C[C@H](CC(C)(C)C)NC(=O)N[C@H](C(=O)N1C[C@H]2[C@@H]([C@H]1C(=O)NC(CC1CCC1)C(=O)C(N)=O)C2(C)C)C(C)(C)C)S(=O)(=O)C1CC1 (some centres unmarked) [Compound 11130] | ≤ 75
41 | CN(C[C@H](CC(C)(C)C)NC(=O)N[C@H](C(=O)N1C[C@H]2[C@@H]([C@H]1C(=O)NC(CC1CCC1)C(=O)C(N)=O)C2(C)C)C(C)(C)C)S(=O)(=O)c1cccs1 (some centres unmarked) [Compound 11131] | ≤ 75
42 | CN(C[C@H](CC(C)(C)C)NC(=O)N[C@H](C(=O)N1C[C@H]2[C@@H]([C@H]1C(=O)NC(CC1CC1)C(=O)C(N)=O)C2(C)C)C(C)(C)C)S(=O)(=O)c1ccccc1 (some centres unmarked) [Compound 11132] | 75 to 250
43 | CCCC(NC(=O)[C@@H]1[C@@H]2[C@H](CN1C(=O)[C@@H](NC(=O)N[C@H](CN(C)S(=O)(=O)C1CC1)CC(C)(C)C)C(C)(C)C)C2(C)C)C(=O)C(N)=O (some centres unmarked) [Compound 11133] | ≤ 75
44 | C=CCNC(=O)C(=O)C(CC1CCC1)NC(=O)[C@@H]1[C@@H]2[C@H](CN1C(=O)[C@@H](NC(=O)N[C@H](CN(C)S(C)(=O)=O)C(C)(C)C)C1Cc3ccccc3C1)C2(C)C (some centres unmarked) [Compound 11134] | ≤ 75
